Test system: female, 129J strain mice
Test: Hind paw withdrawal latency (HPWL) to radiant heat

## C[N+](C)(C)CC[N+]1(C)Cc2c(Cl)c(Cl)c(Cl)c(Cl)c2C1 [chlorisondamine]
Chlorisondamine 10 mg/kg
  nociceptive effect: caused hyperalgesia

## FC(F)OC(Cl)C(F)(F)F (stereo not drawn) [isoflurane]
0.28% isoflurane vs oxygen control, p<0.01
  nociceptive response (HPWL): significantly hyperalgesic
0.56% isoflurane
  nociceptive response (HPWL): HPWL returned to baseline
All mice
  time for HPWL to return to baseline after isoflurane washout: ≤ 1 h
animals
  concentrations that cause hyperalgesia in animals: 0.1-0.38%
Associated with sedation
  isoflurane concentrations at which increased HPWL occurred: above 0.86%
Isoflurane 0.28%, female mice, baseline 9.3±0.7sec.
  HPWL: 6.6 ± 0.6 s
Isoflurane 0.28%, female mice, baseline 9.3±0.7sec., n=14
  maximal reduction of HPWL: 29%
Isoflurane concentrations higher than 0.56%
  nociceptive response (HPWL): progressively increasing analgesia
Saline injected animals, multiple injection paradigm
  isoflurane concentration of maximal hyperalgesia: 0.56%

## CNC1(C)C2CCC(C2)C1(C)C (stereo not drawn) [mecamylamine]
5 mice
  response to 0.84% isoflurane at 1 or 3 hours after mecamylamine: no significant difference
mecamylamine
  effect on HPWL at higher isoflurane concentrations that caused analgesia: HPWL was not changed
Mecamylamine 2 mg/kg, p<0.01
  effect on hyperalgesia induced by 0.28% isoflurane: enhanced
Mecamylamine 5 mg/kg
  nociceptive effect at baseline: caused hyperalgesia at baseline
Mecamylamine 5 mg/kg and greater IP
  nociceptive response (HPWL): analgesia
Mecamylamine 5 mg/kg with addition of isoflurane 0.28%
  decrease in HPWL: 50%
Mecamylamine 2 and 4 mg/kg IP, p<0.001
  nociceptive response (HPWL): significantly increased nociception
Mecamylamine 7.5 or 10 mg/kg
  behaviour after injection: assumed a hunched posture, made rapid back and forth rocking motions, and aggressively groomed themselves
